From PubChem BioAssay
In the library only some 3.7% were active in any assay of this set; here they are far more common.
Nrf2 activator – Nrf2 pathway activation | AREc32 ARE-luciferase reporter (MCF7-derived line), luminescence, 24 h | Potency, µM (highest dose often 46.1 µM), usual class: activators | 410,000 tested, 0.31% active | AID 624171; also: nearly all actives have a fitted effect of over 65% in size
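AREc32_Fluc, 1000 cells/well, OPTI-MEM + 5% FBS, o/n 37 deg C 5% CO2; 23 nL cpd by pin tool, 24 hr; Steady-Glo 30 min RT, luminescence.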
TCR act – activators of T cell receptors; primary human leukocytes, anti-CD3, IL-2 HTRF, 48 h; Potency, µM (highest dose often 9.22 µM), hits mostly activators; 330,000 tested, under 10 active; AID 504894
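Readout: HTRF IL-2, Eu-cryptate/d2 antibody pair, 320nm excitation, 665nm emission. Stimulus: a-CD3 beads, no co-stimulation. Cells: primary human leukocytes. Exposure: 48 hr with compound.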
miR-21 FLuc – miR-21 reporter, rising signal | HeLa miR-21 FLuc reporter, luciferase, 48 h | Potency, µM (top dose mostly 38.3 µM) | 340,000 tested, under 10 active | AID 2288; active = well fitted rising curve with a large enough effect; inconclusive = small, poorly fitted or top-dose-only effect; inactive = no such curve, though single readings can be large or run the other way;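 note: miR-21 action dims this reporter so a rising signal means less miR-21 action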
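Luminescence from a firefly luciferase reporter carrying a miR-21 binding site downstream, stably expressed under a CMV promoter in HeLa cells that make miR-21 endogenously, reports miRNA modulation after 48 h compound exposure up to approximately 40uM final.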
A549 viability – A549 cytotoxicity, counter-screen for Nrf2 inhibitors; A549 ARE-Fluc cells, CellTiter-Fluor viability, 18-24 h; Potency, µM (highest dose often 46 µM), actives largely listed as inhibitors; 390,000 tested, 0.16% active; AID 504648
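Cytotoxicity counterscreen: CellTiter-Fluor fluorescence was measured in A549 ARE_Fluc cells after 18-24 h of compound exposure in a concentration series. The subsequent BugLite luminescent read reports ARE-luciferase activity.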
ClpP mod – qHTS Assay for Activators of ClpP; ATP-dependent Clp protease proteolytic subunit (Bacillus subtilis (strain 168)), P80244; purified B. subtilis ClpP, FRET peptide cleavage, 20 min; Potency, µM (series often up to 57.5 µM); 340,000 tested, 1.9% active; AID 651965, 2013; active = well fitted falling curve with a large enough effect; inconclusive = small, poorly fitted or top-dose-only effect; inactive = no such curve, though single readings can be large or run the other way; also: the source files actives as falling curves though it sought activators and does not explain the sign; nearly all actives have a fitted effect of over 65% in size
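FRET quenching reversal measured ClpP activation: 10 microg/mL B. subtilis ClpP at pH 8 with the FRET-FV decapeptide, read at 430 nm after 320 nm excitation. The 20-min minus 0-min signal was scaled between DMSO/no-enzyme wells and ADEP (5.8 microM final).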
Nrf2 inh – inhibitors of Nrf2 signaling. Potency, µM (titrated, usually from 46 µM), usual class: inhibitors. 360,000 tested, 2.1% active. A549 ARE-Fluc reporter, luciferase luminescence, 18-24 h; also: nearly all actives have a fitted effect of over 60% in size
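Reporter: ARE-Fluc in A549. Exposure: 18-24 h, 37 °C, 5% CO2, 5% FBS OPTI-MEM. Readouts: fluorescent cytotoxicity (CellTiter-Fluor), then luminescent Nrf2 signal after BugLite.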
Numbers stand for hits; n = inactive; u = inconclusive; x = not tested or not shown. Unless noted, calls follow the shape of the dose curve; as a rule, active = well fitted curve in the direction sought with a large enough effect; inconclusive = small, poorly fitted or top-dose-only effect, or another doubt; inactive = no such curve, though single readings can be large; an effect the other way counts as inactive or inconclusive.

SMILES	Nrf2 activator	TCR act	miR-21 FLuc	A549 viability	ClpP mod	Nrf2 inh
C/C(=N\Nc1ccc(F)cc1F)c1ccc(N2CCOCC2)cc1	n	n	n	n	n	n
Cc1cccc(NC(=O)CSc2nnc(-c3ccncc3)n2CC2CCCO2)c1 (configuration not stated)	n	n	n	n	x	n
Cc1cc(Cl)ccc1OC(C)C(=O)N1CCCN(C(=O)C(C)Oc2ccc(Cl)cc2C)CC1 (configuration not stated)	n	n	n	u	n	16µM
C=CCn1cccc(C(=O)Nc2ccc(Cl)cc2)c1=O	n	n	n	n	n	u
C=CCn1cccc(C(=O)Nc2ccc(OCC)cc2)c1=O	n	n	n	n	x	12µM
O=C(N/N=C/c1cccc(F)c1)c1cc(-c2ccco2)nc2ccccc12	n	n	n	u	32µM	n
Cc1cccc(NC(=O)c2ccoc2C)n1	n	n	n	n	28µM	x
COc1cc(/C=N/NC(=O)c2cc(-c3ccco3)nc3ccccc23)cc(OC)c1O	n	n	n	n	n	n
Cc1ccc(S(=O)(=O)N(C)C)cc1NC(=O)c1cc(-c2ccco2)nc2ccccc12	n	n	n	n	28µM	n
Cc1ccccc1NC(=O)c1cc(-c2ccco2)nc2ccccc12	n	n	x	n	x	n
Cc1cccc(NC(=O)c2cc(-c3ccco3)nc3ccccc23)n1	n	n	n	n	22µM	n
O=C(CC(=O)c1ccccc1)CC(O)(C=Cc1ccccc1)c1ccccc1 (configuration not stated)	u	n	x	n	x	n
CC(=O)Nc1sc(C)c(C)c1C(=O)OCC(=O)N(Cc1ccccc1)C(C)C	n	n	x	n	n	n
CC(C)(C)OC(=O)NCc1nnc(-c2cc3ccccc3[nH]2)s1	x	x	x	n	x	n
NC(=O)COC(=O)c1cc(-c2ccco2)nc2ccccc12	3.5µM	n	n	n	x	n
COC(=O)N[C@@H]1C[C@H]2[C@@H]3CC[C@H]4C[C@@H](OC)CC[C@]4(C)[C@H]3CC[C@@]12C	n	n	x	n	n	u
COc1cc(-c2ccc3ncnc(NCc4ccc(C)o4)c3c2)cc(OC)c1OC	x	x	x	n	x	u
Cc1cc(C)nc(-n2nc(C)c(Oc3ccccc3O)c2C)n1	n	n	n	n	28µM	n
CC1O[C@@H](OC2C(O)C(O)C(CO)O[C@H]2OC2C[C@]3(C)C(CC(O)C4[C@@H]([C@]5(C)CC[C@@H](C(C)(C)O)O5)CC[C@]43C)[C@@]3(C)CCC(O)C(C)(C)C23)C(O)C(O)C1O (some centres not stated)	n	n	x	n	n	n
O=c1c2ccccc2nc(-c2ccccc2O)n1Cc1ccccc1	x	x	x	n	x	n
CCN(CC)c1ccc(/C=C/C2=C3C=CC=CC3NC=C2)cc1 (configuration not stated)	x	x	x	x	n	x
COc1cc(C2Nc3ccccc3C(=O)N2Cc2ccco2)cc(OC)c1OC (configuration not stated)	x	x	x	n	n	n
CCN(CC)CCN1C(=O)c2ccccc2NC1c1cccc(F)c1 (configuration not stated)	n	n	n	n	u	u
CCCN1C(=O)c2ccccc2NC1c1cc(OC)c(OC)c(OC)c1 (configuration not stated)	n	n	n	n	18µM	n
CCCN1C(=O)c2ccccc2NC1c1ccc(OC)c(COc2cccc(C)c2C)c1 (configuration not stated)	x	x	x	n	n	26µM
CCN(CC)CCN1C(=O)c2ccccc2NC1c1cc(OC)c(OC)c(OC)c1 (configuration not stated)	n	x	n	n	13µM	n
CSc1ncnc2c1ncn2CCCN1CCN(c2ncccn2)CC1	n	x	x	x	n	x
CCCCCCCCCCCC[n+]1ccc(C)c2ccccc21	x	x	x	x	n	x
O=C(Nc1ccc2c(c1)OCO2)N1CCN(c2ncc(C(F)(F)F)cc2Cl)CC1	n	n	n	n	n	9.2µM
Cc1ccc(NS(=O)(=O)c2ccc3c(c2)CCC(C)(C)O3)cc1C	x	x	x	n	x	23µM
